The values that follow come from BindingDB's records for PubMed 7815359 (University of Pennsylvania, 1995).

Amino acid sequences for entries named in this document (tags omitted).
UniProt P35372, whole entry: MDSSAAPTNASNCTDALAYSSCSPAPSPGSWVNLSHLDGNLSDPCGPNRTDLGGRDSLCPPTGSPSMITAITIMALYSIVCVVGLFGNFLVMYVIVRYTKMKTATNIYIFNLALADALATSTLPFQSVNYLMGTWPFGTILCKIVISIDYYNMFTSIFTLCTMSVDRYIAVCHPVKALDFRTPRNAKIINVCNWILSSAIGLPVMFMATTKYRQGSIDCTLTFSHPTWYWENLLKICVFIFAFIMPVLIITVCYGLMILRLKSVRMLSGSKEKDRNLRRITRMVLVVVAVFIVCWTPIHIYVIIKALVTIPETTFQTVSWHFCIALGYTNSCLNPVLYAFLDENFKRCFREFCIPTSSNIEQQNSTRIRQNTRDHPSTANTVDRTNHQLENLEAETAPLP

In the assay the target is Mu-type opioid receptor (Homo sapiens, UniProt P35372).

One may read the Ki as a dissociation constant, usually derived from enzyme kinetics or from competition with a known ligand. A low value points to a stronger hold on the target. The molecule `CN1CCC23CCCCC2C1Cc1ccc(O)cc13` (stereo unspecified) [17-methyl-17-azatetracyclo[7.5.3.0^{1,10}.0^{2,7}]heptadeca-2(7),3,5-trien-4-ol] registered an inhibition constant Ki of 1000 nM.
